In ChEMBL document CHEMBL4823278, “Metal binding 6-arylthio-3-hydroxypyrimidine-2,4-diones inhibited human cytomegalovirus by targeting the pUL89 endonuclease of the terminase complex” (Eur J Med Chem, 2021) one finds ΔTm and inhibition data, which are given here for ten molecules.

One assay concerns the target T1, Tripartite terminase subunit 3 (Human betaherpesvirus 5) (UniProt P16732).
T1 sequence (whole entry): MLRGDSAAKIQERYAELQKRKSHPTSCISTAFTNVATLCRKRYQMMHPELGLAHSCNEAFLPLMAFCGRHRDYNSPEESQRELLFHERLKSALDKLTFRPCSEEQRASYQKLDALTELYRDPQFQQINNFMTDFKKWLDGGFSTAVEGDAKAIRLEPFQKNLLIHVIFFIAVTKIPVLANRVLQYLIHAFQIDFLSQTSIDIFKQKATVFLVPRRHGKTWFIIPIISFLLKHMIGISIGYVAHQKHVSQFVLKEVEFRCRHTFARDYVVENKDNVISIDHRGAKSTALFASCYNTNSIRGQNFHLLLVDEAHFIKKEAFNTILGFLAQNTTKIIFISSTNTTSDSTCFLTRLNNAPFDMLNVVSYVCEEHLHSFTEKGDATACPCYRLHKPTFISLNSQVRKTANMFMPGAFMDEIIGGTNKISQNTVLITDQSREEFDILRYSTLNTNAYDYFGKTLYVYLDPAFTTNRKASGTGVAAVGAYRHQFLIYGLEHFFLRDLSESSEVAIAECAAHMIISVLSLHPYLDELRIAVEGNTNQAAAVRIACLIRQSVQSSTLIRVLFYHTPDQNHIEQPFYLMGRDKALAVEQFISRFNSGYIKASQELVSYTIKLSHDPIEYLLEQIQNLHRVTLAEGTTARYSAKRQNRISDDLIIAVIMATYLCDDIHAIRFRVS
The conditions noted are these: dose 20.0 µM.
Turning to `Cn1c(Sc2cccc(Cl)c2)cc(=O)n(O)c1=O`, the thermal shift (ΔTm) came out at 29 °C. As for `Cn1c(Sc2ccc(Br)cc2)cc(=O)n(O)c1=O`, the thermal shift (ΔTm) amounted to 33 °C. `COc1ccc(-c2ccc(Sc3cc(=O)n(O)c(=O)[nH]3)cc2)cc1`: the ΔTm is 0.55 °C.

The next assay deals with T1, Tripartite terminase subunit 3 (Human betaherpesvirus 5). Put plainly: Inhibition of human cytomegalovirus pUL89 endonuclease activity using 60 bp dsDNA substrate at 20 uM incubated for 30 mins by ELISA-based biochemical assay relative to control.
Details: not given
For `O=c1cc(Sc2cccc(-c3ccc(Cl)cc3)c2)[nH]c(=O)n1O`, the inhibition amounted to 30%. For `CCc1ccccc1Sc1cc(=O)n(O)c(=O)n1C`, the inhibition was 67%. In turn, `Cn1c(Sc2ccc(Cl)cc2)cc(=O)n(O)c1=O` returned an inhibition of 60%.

With `COc1cccc(Sc2cc(=O)n(O)c(=O)n2C)c1`, the inhibition is 46%. Consider `Cn1c(Sc2ccc(C(F)(F)F)cc2)cc(=O)n(O)c1=O`, for which the inhibition is 33%. Take `Cn1c(Sc2cccc3ccccc23)cc(=O)n(O)c1=O`: the inhibition came out at 68%.

Regarding `Cn1c(Sc2cccc(C(F)(F)F)c2)cc(=O)n(O)c1=O`, the inhibition amounted to 35%.
